From ChEMBL document CHEMBL1131557, “Trans-4-methyl-3-imidazoyl pyrrolidine as a potent, highly selective histamine H3 receptor agonist in vivo” (Bioorg Med Chem Lett, 1998)

Molecular target: Histamine H1 receptor (Cavia porcellus) (UniProt P31389)
Test: Ratio of ED50 of H1 receptor to that of ED50 of H3 receptor was determined

C[C@H]1NCC[C@@H]1c1c[nH]cn1
Ratio: > 550
